Our source for the relative growth values is published antibiotic growth screens (doi:10.1038/s41589-023-01349-8).

SMILES strings stand for the structures. The list shows a part of the results.

The assay has as its system A. baumannii ATCC 17978. The assay can be described thus: relative growth (fraction of control); higher = less inhibition. Conditions: 50 µM.
In turn, `CN(C)CCC(c1ccc(Br)cc1)c1ccccn1.O=C(O)/C=C\C(=O)O` (stereo unspecified) displayed a relative growth of 1.22. The result for `CN(C)CC(=O)N[C@@H]1CC[C@H](CCn2cc(CN(C)C)nn2)O[C@H]1CO` reads 0.964; that for `Cc1c(OCC(F)(F)F)ccnc1C[S@@](=O)c1nc2ccccc2[nH]1`, 1.06. In turn, `CN1C(=O)[C@@H](O)N(c2ccccc2)C1=O` displayed a relative growth of 0.995. The result for `O=C(Nc1ccccc1)Nc1ccc(Nc2ccccc2)cc1` reads 1.24; that for `O=C(C[C@H]1C=C[C@@H](NC(=O)Nc2ccc3c(c2)OCO3)[C@@H](CO)O1)NCCCN1CCOCC1`, 1; that for `Nc1cc(=O)nc2sc(C3CC3)nn12`, 1.05. As for `COc1ccccc1NC(=O)N(C)C[C@H]1Oc2ncc(Br)cc2C(=O)N([C@H](C)CO)C[C@@H]1C`, the figure is 0.985. As for `COC(=O)c1c2oc(c1C(=O)OC)C(=O)N(C)Cc1cn(nn1)C[C@H](Cc1ccccc1)NC(=O)N[C@H](CO)CC2`, the figure is 1.14; as for `COC(=O)C1=C2CC[C@H](CO)NC(=O)N[C@H](Cc3ccccc3)C(=O)NCc3cn(nn3)C[C@H](Cc3ccccc3)NC(=O)c3oc(c(C(=O)OC)c3C(=O)OC)CC[C@H](CO)NC(=O)N[C@H](Cc3ccccc3)C(=O)NCc3cn(nn3)C[C@H](Cc3ccccc3)NC(=O)C(=C1C(=O)OC)O2`, 0.925. `CC(C)CC#Cc1ccc2c(c1)O[C@@H](CN(C)S(=O)(=O)c1ccc(F)cc1)[C@@H](C)CN([C@@H](C)CO)S2(=O)=O` returned a relative growth of 1.12. As for `O=C(C[C@@H]1C=C[C@@H](NC(=O)c2cccnc2)[C@H](CO)O1)NCc1ccncn1`, the figure is 0.998. The result for `O=C(C[C@@H]1C=C[C@@H](NC(=O)C2CC2)[C@@H](CO)O1)NCCCN1CCOCC1` reads 1.03; that for `CN1CCN(CC(=O)N2c3ccccc3C(=O)Nc3cccnc32)CC1.Cl.Cl`, 1.14.

In turn, `O=C(C[C@H]1CC[C@@H](NC(=O)Nc2ccc3c(c2)OCO3)[C@@H](CO)O1)NCCCN1CCOCC1` gave a relative growth of 1.08. As for `CN1CCN(C(=O)C[C@H]2CC[C@@H]3[C@H](COC[C@@H](O)CN3Cc3ccc(Oc4ccccc4)cc3)O2)CC1`, the relative growth amounted to 0.958. The result for `C=CCN1C(=O)[C@@]2(O[C@@H](CCn3cc([C@H](O)c4ccccc4)nn3)[C@H]([Si](C)(C)c3ccc(OC)cc3)[C@H]2C)c2cc(N3C(=O)c4cccc5cccc3c45)ccc21` reads 1.18. Compound `O=C(NCCCO)C(=O)NC[C@H]1COc2ccccc2O1` had a relative growth of 0.942. As for `O=C(C[C@@H]1CC[C@H]2[C@@H](COC[C@H](O)CN2S(=O)(=O)c2ccc(Cl)cc2)O1)NCCN1CCCCC1`, the figure is 0.9; as for `O=C(CCc1ccc(O)cc1)c1c(O)cc(O)cc1O[C@@H]1O[C@H](CO)[C@@H](O)[C@H](O)[C@H]1O`, 1.01; as for `Nc1ncnc2c1nc(Br)n2[C@H]1O[C@H]2COP(=O)(O)O[C@@H]2[C@@H]1O`, 1.13. Turning to `C[C@@H]1CN([C@H](C)CO)C(=O)c2cc(-c3cccc(C(=O)N(C)C)c3)cnc2O[C@@H]1CN(C)C(=O)Cc1ccccn1`, the relative growth worked out at 0.944.

Take `O=C1O[C@H](C(O)CO)C(O)=C1O` (stereo partly specified): the relative growth came to 0.985. As for `CCNC(=O)C[C@H]1C=C[C@@H](NC(=O)C2CC2)[C@H](CO)O1`, the figure is 0.978.

Consider `COc1cc2c(cc1OC)-c1c(oc3cc4c(cc3c1=O)CCO4)CO2`, for which the relative growth was 0.956.

Take `O=C(C[C@H]1C[C@@H]2c3cc(NC(=O)NC4CCCC4)ccc3O[C@@H]2[C@@H](CO)O1)NCc1ccc2c(c1)OCO2`: the relative growth worked out at 0.889. The result for `O=C(CCCCCNC(=O)OCCCCO[C@H]1C[C@H]2C(I)=C[C@@H]1C(=O)[C@]21CCCO1)NO` reads 0.888; that for `Cc1noc(C)c1NC(=O)N[C@@H]1C=C[C@@H](CC(=O)N2CCN(C)CC2)O[C@@H]1CO`, 0.943. Turning to `COC1C(O)C(O)C(O)[C@@H](O)C1O` (stereo partly specified), the relative growth was determined as 1.01. Compound `CC(C)NCC(O)COc1ccc(COCCOC(C)C)cc1.O=C(O)/C=C/C(=O)O` (stereo unspecified) came in with a relative growth of 0.992.

On to `O=C(NCCC1=CCCCC1)c1sc2ccccc2c1Cl`, for which the relative growth worked out at 1.03.

Regarding `COc1ccc([Si](C)(C)[C@H]2[C@H](CC(=O)N(CCO)Cc3ccccc3)O[C@@]3(C(=O)N(Cc4cccc(N5CCCCC5=O)c4)c4ccccc43)[C@@H]2C)cc1`, the relative growth stood at 1.14.

The compound `Cn1nnnc1-c1ccc(N)cc1` had a relative growth of 0.912. The result for `CCS(=O)(=O)NCC[C@@H]1CC[C@@H](NC(=O)C2CCOCC2)[C@H](CO)O1` reads 1.06; that for `CCCC1CCC(c2ccc(OC(=O)c3ccco3)cc2)CC1` (stereo unspecified), 1.21; that for `C[C@@H]1CN([C@H](C)CO)S(=O)(=O)c2ccc(Br)cc2O[C@@H]1CN(C)S(=O)(=O)c1ccc(F)cc1`, 0.74. For `CN1CCN(C(=O)C[C@@H]2CC[C@@H]3[C@H](COC[C@H](O)CN3S(=O)(=O)c3cccc(Cl)c3)O2)CC1`, the relative growth came to 1.14. For `CC[C@H]1Sc2ccccc2NC1=O`, the relative growth turned out to be 0.815. `N[C@H]1[C@H](CCCCC(=O)O)SC[C@@H]1N` had a relative growth of 0.996. `Cl.N[C@@H](COP(=O)(O)O)C(=O)O` had a relative growth of 0.969. As for `CCCc1cc(=O)[nH]c(=S)[nH]1`, the relative growth came to 0.994. As for `COC(=O)c1cccc(C(=O)OC)n1`, the figure is 1; as for `CC1=C(CC(=O)O)c2cc(F)ccc2/C1=C\c1ccc(S(C)=O)cc1` (stereo unspecified), 0.923; as for `Cc1ccccc1S(=O)(=O)N1C[C@H](O)COC[C@@H]2O[C@H](CC(=O)N3CCC(Cc4ccccc4)CC3)CC[C@H]21`, 0.836. Regarding `COc1ccc(S(=O)(=O)N[C@H]2CC[C@H](CC(=O)N3CCN(c4ccccc4)CC3)O[C@@H]2CO)cc1`, the relative growth turned out to be 1.15. As for `C[C@H](CO)N1C[C@H](C)[C@@H](CN(C)C(=O)Cc2ccncc2)Oc2cc(C3=CCCC3)ccc2S1(=O)=O`, the figure is 0.968. On to `O=C(O[C@@H]1Cc2c(O)cc(O)cc2O[C@@H]1c1cc(O)c(O)c(O)c1-c1c([C@H]2Oc3cc(O)cc(O)c3C[C@H]2O)cc(O)c(O)c1O)c1cc(O)c(O)c(O)c1`, for which the relative growth came out at 0.83.

`CC(=O)N[C@@H]1CC[C@@H](CCNC(=O)C2CC2)O[C@@H]1CO` had a relative growth of 0.96. The compound `NCC(=O)NC1CCCCC1` gave a relative growth of 0.972. `CC1=C(CCC(=O)O)c2cc3[nH]c(cc4nc(cc5[nH]c(cc1n2)c(C)c5C(C)O)C(C)=C4C(C)O)c(C)c3CCC(=O)O` (stereo unspecified) yielded a relative growth of 1.04. `COc1ccc(COCC23Oc4ccccc4[C@H]([C@H]2COC(=O)NCCCCCC(=O)NO)n2c(c4c(c(C(C)=O)c2=O)C(=O)N(C)C4=O)N3C)cc1` returned a relative growth of 0.979.
